Test results published in ChEMBL document CHEMBL5727998, “8-amino-2-oxo-1,3-diaza-spiro-[4.5]-decane derivatives” (2020).

The compounds below were run against Nociceptin receptor (Homo sapiens, UniProt P41146) (assay: Receptor Binding Assay: The hNOP receptor binding assay was performed as homogeneous SPA-assay (scintillation proximity assay) using the assay buffer 50 mM TRIS-HCl. 10 mM MgCl2. 1 mM EDTA (pH 7.4). The final assay volume (250 μl/well) included 0.5 nM of [leucyl-3H]nociceptin as ligand (PerkinElmer Life Sciences. Inc. Boston. Mass. USA). and either test compound in dilution series or 1 μM unlabell).

Question: How did the Ki turn out when `CN(C)[C@]1(c2ccccc2)CC[C@]2(CC1)CN(CCN1CCOCC1)C(=O)N2CC1(O)CCC1` was run?
Answer: Its Ki is 0.155 µM and 0.026 µM and 0.057 µM.

Question: With `CN(C)[C@]1(c2ccccc2)CC[C@]2(CC1)CN(CC(C)(C)C#N)C(=O)N2CC1(F)CC1` as the compound, how does the Ki read?
Answer: Its Ki is 0.69 µM.

Question: `CN(C)[C@]1(c2ccccc2)CC[C@]2(CC1)CN(C1CCN(c3cncnc3)CC1)C(=O)N2CC1(O)CCC1` was tested. Which Ki did it give?
Answer: Its Ki is 0.008 µM.

Question: For `CN(C)[C@]1(c2ccccc2)CC[C@@]2(CC1)CN(CC(C)(C)C#N)C(=O)N2CC1CC1`, which Ki is on record?
Answer: The Ki was 0.024 µM.

Question: For `CN(C)[C@]1(c2ccccc2)CC[C@]2(CC1)CN(CC1(O)CCS(=O)(=O)CC1)C(=O)N2CC1CCC1`, which Ki is on record?
Answer: Its Ki is 0.004 µM.

Question: How did the Ki turn out when `CN(C)[C@]1(c2ccccc2)CC[C@]2(CC1)CN(CC1(O)CCS(=O)(=O)CC1)C(=O)N2CC1(O)CCC1` was run?
Answer: Its Ki is 0.019 µM and 0.017 µM.

What follows are compounds tested against Mu-type opioid receptor (Homo sapiens, UniProt P35372) (assay: Receptor Binding Assay: The hMOP receptor binding assay was performed as homogeneous SPA-assay (scintillation proximity assay) using the assay buffer 50 mM TRIS-HCl (pH 7.4) supplemented with 0.052 mg/ml bovine serum albumin (Sigma-Aldrich Co. St. Louis. Mo.). The final assay volume (250 ul/well) included 1 nM of [N-allyl-2.3-3H]naloxone as ligand (PerkinElmer Life Sciences. Inc. Boston. Mass. USA).

Question: How did the Ki turn out when `CN(C)[C@]1(c2ccccc2)CC[C@]2(CC1)CN(CC1CCS(=O)(=O)CC1)C(=O)N2CC1(O)CCC1` was run?
Answer: The Ki was 0.245 µM and 0.185 µM and 1.29 µM.

Question: `CN(C)[C@]1(c2cccc(F)c2)CC[C@]2(CC1)CN(CC1(O)CCS(=O)(=O)CC1)C(=O)N2CC1(O)CCC1` was tested. Which Ki did it give?
Answer: Its Ki is 0.33 µM and 0.096 µM.

Question: `CN(C)[C@]1(c2ccccc2)CC[C@]2(CC1)CN(CC1(O)CCS(=O)(=O)CC1)C(=O)N2CC1CC1` was tested. Which Ki did it give?
Answer: Its Ki is 1.81 µM and 0.495 µM.

Question: `CN(C)[C@]1(c2ccccc2)CC[C@]2(CC1)CN(CCN1CCOCC1)C(=O)N2CC1(O)CCC1` was tested. Which Ki did it give?
Answer: Its Ki is 0.206 µM and 0.643 µM.

Question: Which Ki does the source give for `CN(C)[C@]1(c2ccccc2)CC[C@]2(CC1)CN(C1CCN(c3cncnc3)CC1)C(=O)N2CC1CC1` here?
Answer: Its Ki is 1.76 µM [middle of 4 runs].

Question: For `CN(C)[C@]1(c2ccccc2)CC[C@]2(CC1)CN(CCC1(O)CCS(=O)(=O)CC1)C(=O)N2CC1(O)CCC1`, which Ki is on record?
Answer: The Ki was 0.415 µM and 4.15 µM.

Question: Which Ki does the source give for `CN(C)[C@]1(c2ccccc2)CC[C@]2(CC1)CN(C1CCN(c3cncnc3)CC1)C(=O)N2CC1(O)CCC1` here?
Answer: The Ki was 0.63 µM.

Question: For `CN(C)[C@]1(c2ccccc2)CC[C@@]2(CC1)CN(CC(C)(C)C#N)C(=O)N2CC1CC1`, which Ki is on record?
Answer: The Ki was 0.23 µM.

Question: Which Ki does the source give for `CN(C)[C@]1(c2ccccc2)CC[C@]2(CC1)CN(CC1(O)CCS(=O)(=O)CC1)C(=O)N2CC1CCC1` here?
Answer: The Ki was 0.125 µM and 0.124 µM.

Question: For `CN(C)[C@]1(c2ccccc2)CC[C@]2(CC1)CN(CC1(O)CCS(=O)(=O)CC1)C(=O)N2CC1(O)CCC1`, which Ki is on record?
Answer: Its Ki is 1.06 µM and 0.415 µM.

Several values for one entry are separate records, joined by “and”; a condition that tells them apart may be missing. Identical values can stand only once.
